Results on one molecule are retold here after PubChem BioAssay AID824 (SRMLSC, 2007).

Structures are written as SMILES. Only a part is listed here, and it is no random draw. Records with an inconclusive call do not appear. Active and inactive are the calls of the source.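 How the source made its calls: active means viability at or below 27.92% in each of two runs, the all-compound median minus 4 SD; inconclusive means no clear call, values can overlap the other calls; inactive means the rest.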

This experiment can be described thus: viability of PTEN-null HCT116 cells – cell-based, HCT116 clonal line, CellTiter-Glo, pilot screen (AID 824).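 Further: 0% = 20 µM Hyamine control and 100% = vehicle cell control.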 The following applies: HCT116 PTEN-deleted viability, 60 h, at 10 µM, active compounds read low. A general note: ATP-based viability assays read luminescence as a measure of living cells.
What is called viability is the share of living cells, or the viability signal relative to a control. As to `Fc1ccccc1NC1CCN(Cc2ccccc2)CC1`, the viability was inactive: 88.7%.
